Values of other authors in patent publication US20120015919A1, “THERAPIES FOR TREATING CANCER USING COMBINATIONS OF COX-2 INHIBITORS AND AROMATASE INHIBITORS OR COMBINATIONS OF COX-2 INHIBITORS AND ESTROGEN RECEPTOR ANTAGONISTS” (Tragara Pharmaceuticals, Inc., priority 2007, published 2012).

Sequences of proteins named here, by UniProt entry; tags and fusion partners are left off.
UniProt P03372, whole entry: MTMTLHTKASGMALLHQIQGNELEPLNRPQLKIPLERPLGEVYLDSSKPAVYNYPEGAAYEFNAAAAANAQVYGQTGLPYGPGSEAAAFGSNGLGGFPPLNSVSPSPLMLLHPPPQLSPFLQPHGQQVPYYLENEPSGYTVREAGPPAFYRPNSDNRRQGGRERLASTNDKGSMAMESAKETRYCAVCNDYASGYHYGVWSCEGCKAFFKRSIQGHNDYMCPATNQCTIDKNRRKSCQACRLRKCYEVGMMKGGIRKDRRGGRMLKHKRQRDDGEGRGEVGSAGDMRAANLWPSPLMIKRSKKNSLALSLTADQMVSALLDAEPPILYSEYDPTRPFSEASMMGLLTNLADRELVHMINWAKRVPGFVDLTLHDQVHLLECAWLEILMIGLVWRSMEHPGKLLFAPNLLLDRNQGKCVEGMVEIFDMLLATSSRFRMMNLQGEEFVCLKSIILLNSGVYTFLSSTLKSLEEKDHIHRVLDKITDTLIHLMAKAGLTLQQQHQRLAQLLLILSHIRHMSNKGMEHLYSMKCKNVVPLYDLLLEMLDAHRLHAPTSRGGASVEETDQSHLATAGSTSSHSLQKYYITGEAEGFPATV

Key:
estrogen receptor = estrogen receptor (Homo sapiens, UniProt P03372); settings: relative to estradiol; cited from earlier work
[1] = test system: HER2-positive breast cancer cell lines (BT474 and SKBR3); settings: cited from earlier work

Row | Compound | affinity for the estrogen receptor (estrogen receptor) | cells in G0/G1 arrest following trastuzumab exposure ([1]; trastuzumab-resistant cells) | cells in S-phase following trastuzumab exposure ([1]; trastuzumab-resistant cells) | cells in G0/G1 arrest following trastuzumab exposure ([1]; trastuzumab-sensitive cells)
1 | C[C@]12CC[C@@H]3c4ccc(O)cc4C[C@@H](CCCCCCCCC[S+]([O-])CCCC(F)(F)C(F)(F)F)[C@H]3[C@@H]1CC[C@@H]2O (stereo partly shown) [Fulvestrant] | comparable to estradiol |  |  | 
2 | trastuzumab: monoclonal antibody that blocks the effects of the growth factor protein HER2 |  | 68% | 14% | 84%

Like-named read-outs stand apart in the source and are kept apart here.
